The source of these data is the DeepSol protein solubility set.

This series in a line: soluble on expression in E. coli; label from the status in PepcDB or PDB records.

For the sequence “KSKLPKPVQDLIKMIFDVESMKKAMVEYEIDLQKMPLGKLSKRQIQAAYSILSEVQQAVSQGSSDSQILDLSNRFYTLIPHDFGMKKPPLLNNADSVQAKVEMLDNLLDIEVAYSLLRGGSDDSSKDPIDVNYEKLKTDIKVVDRDSEEAEIIRKYVKNTHATTHNAYDLEVIDIFKIEREGECQRYKPFKQLHNRRLLWHGSRTTNFAGILSQGLRIAPPEAPVTGYMFGKGIYFADMVSKSANYCHTSQGDPIGLILLGEVALGNMYELKHASHISKLPKGKHSVKGLGKTTPDPSANISLDGVDVPLGTGISSGVNDTSLLYNEYIVYDIAQVNLKYLLKLKFNFKT”, the “soluble on expression in E. coli” value was “soluble”.
